Results on one compound are retold here after US20230158001A1, “PHARMACEUTICAL COMPOSITION COMPRISING BENZIMIDAZOLE DERIVATIVE COMPOUND” (HK INNO.N CORPORATION, priority 2020, published 2023).

SMILES strings stand for the structures.

This series in a line: Pharmacokinetic interaction of tegoprazan and celecoxib, alone or in combination (Cohort 3). Particulars: celecoxib; co-administered with tegoprazan vs alone.

`Cc1ccc(-c2cc(C(F)(F)F)nn2-c2ccc(S(N)(=O)=O)cc2)cc1` [Celecoxib, celecoxib, reference compound]: the “AUCτ, Geometric LS Mean Ratio (Treatment G/Treatment F), Point Estimate” value is reported as 1.0826 and the “Css,max, Geometric LS Mean Ratio (Treatment G/Treatment F), Point Estimate” value is listed as 1.1811.
